Assays:
[1] = system: Z-Arg-Leu-Arg-Gly-Gly (SEQ ID NO: 1)-amino-luciferin
ubiquitin-rhodamine110 = ubiquitin-rhodamine110 (UniProt P0CG47)
[2] = target: ubiquitin-7-amino-4-methylcoumarin (UniProt P0CG47)

JosD1 (Josephin-1)
Signal to Background, luminescence, DUB 10 nM [1]: 1.3 S/B | Signal to Background, fluorescence, DUB 10 nM (ubiquitin-rhodamine110): 1.5 S/B | Signal to Background, luminescence, DUB 10 nM (Ub(1-76)-aminoluciferin): 74 S/B | Signal to Background, fluorescence, DUB 10 nM [2]: 1.1 S/B
